The target of this test is ROMK (Kir1.1) channel (Homo sapiens (Human), UniProt P48048). Nature of the test: Thallium Flux Assay. Format: cell-based. As for the experimental part: A Thallium Flux Assay was performed on each of the final product compounds of the Examples. This assay has been described previously; see, e.g., PCT Published Application WO 2013/062900.

Amino acid sequences for entries named in this document (tags omitted). A change or cut given only in a name is not applied to a line headed by its entry.
UniProt P48048: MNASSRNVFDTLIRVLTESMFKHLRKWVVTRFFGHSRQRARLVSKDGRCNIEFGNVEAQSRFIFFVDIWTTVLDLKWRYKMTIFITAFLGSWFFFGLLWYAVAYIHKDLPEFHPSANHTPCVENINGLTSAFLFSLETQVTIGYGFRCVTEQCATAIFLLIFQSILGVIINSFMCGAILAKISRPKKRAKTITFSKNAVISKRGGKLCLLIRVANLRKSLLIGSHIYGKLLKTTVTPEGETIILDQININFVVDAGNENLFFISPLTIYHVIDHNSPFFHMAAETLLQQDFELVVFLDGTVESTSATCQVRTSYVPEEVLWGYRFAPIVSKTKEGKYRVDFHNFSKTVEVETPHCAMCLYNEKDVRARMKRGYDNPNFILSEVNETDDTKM

Molecules are shown by their SMILES.

Turning to `CC1=C(N2CC[C@]3(CC[C@H](N(C)Cc4ccc5c(c4C)Cn4nnnc4-5)CC3)C2=O)COC1=O` [Example 97], 170 nM corresponded to half-maximal inhibition (IC50). This lies in the sub-micromolar range.
`CC1=C(N2CC[C@]3(CC[C@@H](NCc4ccc(-n5ncnn5)nc4)CC3)C2=O)COC1=O` [Example 76] yielded an IC50 of 180 nM.
As to `CC1=C(N2C(=O)[C@]3(CC[C@@H](NCc4ccc5c(c4)Cn4nnnc4-5)CC3)C[C@@H]2C)COC1=O` [Example 58, (3S,5s,8R)-8-(((5H-tetrazolo[5,1-a]isoindol-7-yl)methyl)amino)-3-methyl-2-(4-methyl-5-oxo-2,5-dihydrofuran-3-yl)-2-azaspiro[4.5]decan-1-one], half-maximal inhibition (IC50) was put at 180 nM. This lies in the sub-micromolar range.

The values above are taken from patent publication US9718808B2, “Inhibitors of the renal outer medullary potassium channel” (Merck Sharp & Dohme Corp., priority 2014, dated 2017).
